Assay results: patent publication US9950048B2, “Immunogenic epitopes for immunotherapy” (immatics biotechnologies GmbH, priority 2007, dated 2018)
Several values for one entry are separate records, joined by “and”; a condition that tells them apart may be missing. Equal values may be shown once.

How the values were obtained:
[1] = system: CD8+ T cells of healthy HLA-A*02+ donors; experiment: In vitro priming of CD8+ T cells with pMHC/anti-CD28 coated beads (high density), tetramer analysis; assay type: cell-based, human
Text: To perform in vitro stimulations by artificial antigen presenting cells (aAPC) loaded with peptide-MHC complex (pMHC) and anti-CD28 antibody, first PBMCs (peripheral blood mononuclear cells) were isolated from fresh HLA-A*02+ buffy coats by using standard density gradient separation medium (PAA, Cölbe, Germany). Buffy coats were either obtained from the Blood Bank Tübingen or from the Katharinenhospital Stuttgart. […] Generation of pMHC/anti-CD28 coated beads, T-cell stimulations and readout was performed as described before (Walter, S, et al., 2003, J. Immunol., 171, 4974-4978) with minor modifications. […]
800,000 beads/200 μl were coated in 96-well plates in the presence of 600 ng biotin anti-CD28 plus 200 ng relevant biotin-pMHC (high density beads) or 2 ng relevant plus 200 ng irrelevant (pMHC library) MHC (low density beads). […] Peptide specific cells were calculated as percentage of total CD8+ T cells. […] In vitro priming of specific tetramer+CD8+ lymphocytes was detected by appropriate gating and by comparison to negative control stimulations. […]
Results of in vitro immunogenicity experiments conducted by immatics are summarised here. […] As different human serum lots may highly affect the immunogenicity results, only assays in which one and the same serum lot was used, were evaluated together.

[2] = Particle size/shape measurement and analytical HPLC of reconstituted IMA910 suspension; assay type: physicochemical; conditions: analytical HPLC of suspension
Experimental: Particle size distribution and particle shape measurement of the particles obtained after reconstitution have been performed by capturing direct images of each individual particle in the range of 0.25 to 100 μm followed by image analysis.
Furthermore, analytical HPLC was performed for a closer characterization of the obtained suspension.
IMA910 is dissolved in 700 μL sodium hydrogen carbonate (4.2%).

**Q.** Which Positive donors/donors tested [1] does the source give for “FLPSDFFPSV [IMA-HBV-001, reference compound]” here?
**A.** 2/5 and 7/16

**Q.** What about the Positive wells/wells tested [1] of the same sequence?
**A.** 10/54 and 10/107

**Q.** What about the “amount of peptide found in the particles” value [2] of the same sequence?
**A.** low amounts
